Laboratory results as given in patent US10815229B1, “Benzenesulfonamide compounds and their use as therapeutic agents” (Xenon Pharmaceuticals Inc., priority 2016, dated 2020).

The chains behind the UniProt entries cited, without tags or fusion partners. A line that says so, or that is headed by a name, gives the form on record, which may keep a tag or linker.
UniProt Q14524, other isoform, or with tags, fused parts or gaps: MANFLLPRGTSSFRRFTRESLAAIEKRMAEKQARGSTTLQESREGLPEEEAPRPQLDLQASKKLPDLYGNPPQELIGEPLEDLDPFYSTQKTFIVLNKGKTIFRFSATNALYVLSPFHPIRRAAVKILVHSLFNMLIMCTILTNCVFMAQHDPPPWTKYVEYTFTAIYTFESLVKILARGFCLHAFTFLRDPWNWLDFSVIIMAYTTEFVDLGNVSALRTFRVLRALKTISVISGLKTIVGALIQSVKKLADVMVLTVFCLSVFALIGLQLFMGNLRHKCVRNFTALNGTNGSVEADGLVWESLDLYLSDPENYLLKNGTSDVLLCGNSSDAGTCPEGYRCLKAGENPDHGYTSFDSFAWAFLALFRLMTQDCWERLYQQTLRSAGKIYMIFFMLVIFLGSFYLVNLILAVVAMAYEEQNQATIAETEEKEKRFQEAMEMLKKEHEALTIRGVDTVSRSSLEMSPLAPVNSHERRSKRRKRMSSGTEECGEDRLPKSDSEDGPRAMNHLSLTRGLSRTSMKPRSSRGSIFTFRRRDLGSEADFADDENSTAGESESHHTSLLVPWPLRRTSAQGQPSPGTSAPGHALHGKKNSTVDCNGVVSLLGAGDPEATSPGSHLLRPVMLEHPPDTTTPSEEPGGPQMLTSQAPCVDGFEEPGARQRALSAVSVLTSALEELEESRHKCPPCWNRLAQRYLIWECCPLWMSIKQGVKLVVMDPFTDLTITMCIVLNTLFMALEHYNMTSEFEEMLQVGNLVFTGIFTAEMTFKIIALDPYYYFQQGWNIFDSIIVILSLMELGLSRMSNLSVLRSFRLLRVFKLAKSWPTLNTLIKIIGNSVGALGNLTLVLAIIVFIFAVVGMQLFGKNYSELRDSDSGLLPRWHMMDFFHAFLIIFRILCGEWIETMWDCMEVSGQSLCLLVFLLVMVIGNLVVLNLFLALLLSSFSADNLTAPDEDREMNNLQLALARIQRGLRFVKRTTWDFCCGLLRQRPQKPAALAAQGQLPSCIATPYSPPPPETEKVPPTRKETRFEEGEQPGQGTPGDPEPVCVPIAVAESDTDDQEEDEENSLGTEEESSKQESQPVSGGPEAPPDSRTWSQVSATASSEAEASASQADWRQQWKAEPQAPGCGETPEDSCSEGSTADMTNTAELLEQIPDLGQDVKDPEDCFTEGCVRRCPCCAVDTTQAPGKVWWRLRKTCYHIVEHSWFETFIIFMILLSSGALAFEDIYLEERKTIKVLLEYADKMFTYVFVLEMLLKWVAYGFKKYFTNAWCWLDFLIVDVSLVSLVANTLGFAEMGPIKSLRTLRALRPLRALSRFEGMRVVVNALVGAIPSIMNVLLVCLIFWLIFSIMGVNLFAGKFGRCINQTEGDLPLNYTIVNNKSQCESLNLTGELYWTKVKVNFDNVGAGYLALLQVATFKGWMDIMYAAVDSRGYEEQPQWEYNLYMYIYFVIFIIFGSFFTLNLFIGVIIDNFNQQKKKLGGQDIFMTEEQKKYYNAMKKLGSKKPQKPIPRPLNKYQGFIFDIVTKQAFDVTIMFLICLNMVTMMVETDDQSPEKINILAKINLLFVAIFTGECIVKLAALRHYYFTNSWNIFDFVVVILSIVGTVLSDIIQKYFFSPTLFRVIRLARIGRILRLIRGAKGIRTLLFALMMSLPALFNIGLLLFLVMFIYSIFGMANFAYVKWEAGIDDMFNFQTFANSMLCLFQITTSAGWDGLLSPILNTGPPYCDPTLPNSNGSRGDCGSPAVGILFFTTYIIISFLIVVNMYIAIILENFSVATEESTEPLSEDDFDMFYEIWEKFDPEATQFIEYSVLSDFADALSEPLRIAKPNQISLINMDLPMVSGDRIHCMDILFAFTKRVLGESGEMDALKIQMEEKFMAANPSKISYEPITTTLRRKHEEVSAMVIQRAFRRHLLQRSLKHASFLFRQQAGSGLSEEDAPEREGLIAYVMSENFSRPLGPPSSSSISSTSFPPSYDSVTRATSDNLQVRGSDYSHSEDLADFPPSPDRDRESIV

Biological target: NaV1.5 (Homo sapiens (Human), UniProt Q14524)
Test: Sodium Influx Assay (Flux), NaV1.5
Details: read-out: Flux NaV1.5 IC50; Trex HEK293 cells, ANG2 dye; arithmetic mean

Substance: (S)-2-fluoro-4-((1-(2-hydroxybenzyl)-pyrrolidin-3-yl)(methyDamino)-5-methyl-N-(thiazol-4-yl)benzenesulfonamide [Example 113]
- IC50: 13 µM
